{
  "source": "PubChem BioAssay AID624304",
  "about": "(Sanford-Burnham Center for Chemical Genomics, 2012)",
  "note": "The list shows a part of the results, in another mix than the full data. Some salts and complexes are drawn in separate pieces, as the source files them; their charges need not balance. The source made the active and inactive calls.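 Rule for the calls: active = interference check ratio from 0.5 to 1.5 plus GFP to RFP signal ratio inhibition reaching or exceeding a fixed threshold (cut at about 30% in these data, passing the limit was not always enough); inactive = the rest.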",
  "data": [
    {"assay": "gst-4 reporter inhibition in live C. elegans – whole organism, uHTS, GFP/RFP fluorescence ratio, strain VP596, SKN-1 inhibitor project, primary screen (AID 624304)", "conditions": "C. elegans VP596 Pgst-4::GFP/RFP ratio, acrylamide-induced, 24 h; at 21.8 µM; hits give high values", "values": [
      {"smiles": "CCOC(=O)c1ccc(NP(C)(=O)Oc2ccc(Cl)cc2)cc1", "note": "(centres undefined)", "inhibition": "inactive: 3%"},
      {"smiles": "CP(=O)(OC12CC3CC(CC(C3)C1)C2)OC12CC3CC(CC(C3)C1)C2", "inhibition": "inactive: -5.66%"},
      {"smiles": "O=C(OCCCN1CCCC1)C(O)(c1ccccc1)C1CCCCC1", "note": "(centres undefined)", "inhibition": "inactive: -0.0877%"},
      {"smiles": "COc1ccccc1OP(C)(=O)Nc1c(C)n(C)n(-c2ccccc2)c1=O", "note": "(centres undefined)", "inhibition": "inactive: 7.75%"},
      {"smiles": "CCc1ccc(OP(C)(=O)Nc2cccnc2)cc1", "note": "(centres undefined)", "inhibition": "inactive: 7.47%"},
      {"smiles": "CP(=O)(Oc1ccccc1)N1CCOC1=O", "note": "(centres undefined)", "inhibition": "inactive: 31.7%"},
      {"smiles": "COc1ccc(OP(C)(=O)Nc2ccc(Br)cc2)cc1", "note": "(centres undefined)", "inhibition": "inactive: 1.42%"},
      {"smiles": "CCN(CC)CC(O)COC(=O)C(O)(c1ccccc1)C1CCCCC1", "note": "(centres undefined)", "inhibition": "inactive: -0.563%"},
      {"smiles": "CN(C)C(=O)c1c([N+](=O)[O-])cc([N+](=O)[O-])cc1[N+](=O)[O-]", "inhibition": "inactive: 20.6%"},
      {"smiles": "COc1ccccc1OP(C)(=O)Nc1ccccc1Br", "note": "(centres undefined)", "inhibition": "inactive: -5.12%"},
      {"smiles": "CC(C)(C)c1ccc(OP(C)(=O)O)cc1", "inhibition": "inactive: 28%"},
      {"smiles": "CP(=O)(Nc1ccc(Cl)cc1)Oc1ccc(F)cc1", "note": "(centres undefined)", "inhibition": "inactive: 2.77%"},
      {"smiles": "COc1ccc(OP(C)(=O)Nc2ccccn2)cc1", "note": "(centres undefined)", "inhibition": "inactive: 4.79%"},
      {"smiles": "CN(C)CCOC(=O)C(O)(c1ccccc1)C1CCCC1", "note": "(centres undefined)", "inhibition": "inactive: 17.9%"},
      {"smiles": "COc1ccccc1OP(C)(=O)Nc1ccc(Br)cc1", "note": "(centres undefined)", "inhibition": "inactive: 6.86%"},
      {"smiles": "COc1ccccc1OP(C)(=O)Nc1ccc(C)cc1C", "note": "(centres undefined)", "inhibition": "inactive: 10.7%"},
      {"smiles": "CP(=O)(Nc1ccccn1)Oc1ccccc1", "note": "(centres undefined)", "inhibition": "inactive: 10.3%"},
      {"smiles": "CCc1ccc(OP(C)(=O)O)cc1", "inhibition": "inactive: -10.5%"},
      {"smiles": "Cc1c(NP(C)(=O)Oc2ccc(C(C)C)cc2)c(=O)n(-c2ccccc2)n1C", "note": "(centres undefined)", "inhibition": "inactive: -1.94%"},
      {"smiles": "O=[N+]([O-])c1cc([N+](=O)[O-])c(Nc2ccccn2)c([N+](=O)[O-])c1", "inhibition": "inactive: 5.07%"},
      {"smiles": "COc1ccccc1OP(C)(=O)Nc1ccc(C)c(C)c1", "note": "(centres undefined)", "inhibition": "inactive: 3.14%"},
      {"smiles": "COc1ccc(OP(C)(=O)Nc2ccccc2Br)cc1", "note": "(centres undefined)", "inhibition": "inactive: 3.69%"},
      {"smiles": "Cc1cc(C)cc(OP(C)(=O)Nc2cccc(C(F)(F)F)c2)c1", "note": "(centres undefined)", "inhibition": "inactive: 0.0677%"},
      {"smiles": "O=C1C(O)=C([N+](=O)[O-])C(=O)C(O)=C1[N+](=O)[O-]", "inhibition": "inactive: 1.71%"},
      {"smiles": "CP(=O)(Nc1ccc(Cl)cc1Cl)Oc1ccccc1", "note": "(centres undefined)", "inhibition": "inactive: -0.321%"},
      {"smiles": "CCCCCCCCCCCCCCCC1C[N+](C)(C)CCOP(C)(=O)O1", "note": "(centres undefined)", "inhibition": "active: 46.6%"},
      {"smiles": "CP(=O)(OCCOc1ccccc1)OCCOc1ccccc1", "inhibition": "inactive: 1.54%"},
      {"smiles": "CCOC(=O)c1ccc(NP(C)(=O)Oc2ccc(F)cc2)cc1", "note": "(centres undefined)", "inhibition": "inactive: 1.81%"},
      {"smiles": "COc1ccc(OP(C)(=O)Nc2ccc(SC(F)(F)F)cc2)cc1", "note": "(centres undefined)", "inhibition": "inactive: -1.07%"},
      {"smiles": "CCN(CC)CCCNc1ccccc1[N+](=O)[O-].O=[N+]([O-])c1cc([N+](=O)[O-])c(O)c([N+](=O)[O-])c1", "inhibition": "inactive: 13%"},
      {"smiles": "CP(=O)(Nc1ccccc1)Oc1ccc(F)cc1", "note": "(centres undefined)", "inhibition": "inactive: 6.92%"},
      {"smiles": "O=[N+]([O-])c1cc([N+](=O)[O-])c(OC2CCCCC2O)c([N+](=O)[O-])c1", "note": "(centres undefined)", "inhibition": "inactive: 10.7%"},
      {"smiles": "CCCCCOc1ccc(NP(C)(=O)Oc2ccc(Cl)cc2Cl)cc1", "note": "(centres undefined)", "inhibition": "inactive: 12.9%"},
      {"smiles": "Cc1c([N+](=O)[O-])cc([N+](=O)[O-])c(Br)c1[N+](=O)[O-]", "inhibition": "inactive: 1.18%"},
      {"smiles": "CCN(CC)CCCOC(=O)C(O)(c1ccccc1)C1CCCCC1", "note": "(centres undefined)", "inhibition": "inactive: 20.5%"},
      {"smiles": "CP(=O)(Nc1ccccc1F)Oc1ccccc1", "note": "(centres undefined)", "inhibition": "inactive: 6.57%"},
      {"smiles": "CC(C)c1ccc(OP(C)(=O)Nc2ccc(SC(F)(F)F)cc2)cc1", "note": "(centres undefined)", "inhibition": "inactive: -0.38%"},
      {"smiles": "O=[N+]([O-])c1cc([N+](=O)[O-])c(Nc2ccc(Cl)cc2)c([N+](=O)[O-])c1", "inhibition": "inactive: 2.06%"},
      {"smiles": "COc1ccc2c(c1O)-c1c(O)c(OC)cc3c1[C@H](C2)[N+](C)(C)CC3.O=[N+]([O-])c1cc([N+](=O)[O-])c([O-])c([N+](=O)[O-])c1[O-]", "inhibition": "inactive: -1.42%"},
      {"smiles": "O=C(OC1CN2CCC1CC2)c1ccc([N+](=O)[O-])cc1", "note": "(centres undefined)", "inhibition": "inactive: 8.09%"},
      {"smiles": "O=C(OCCN1CCN(CCOCc2ccccc2)CC1)C(O)(c1ccccc1)c1ccccc1", "inhibition": "inactive: 5.82%"},
      {"smiles": "CCOP(C)(=S)SCC(=O)NC(C)(CC)C(=O)O", "note": "(centres undefined)", "inhibition": "inactive: -6.99%"},
      {"smiles": "CP(=O)(Nc1ccc(SC(F)(F)F)cc1)Oc1ccc(F)cc1", "note": "(centres undefined)", "inhibition": "inactive: 12.2%"},
      {"smiles": "Cc1ccccc1NP(C)(=O)Nc1ccccc1C", "inhibition": "inactive: 14.4%"},
      {"smiles": "O=[N+]([O-])c1cc([N+](=O)[O-])c(C(F)(F)F)c([N+](=O)[O-])c1O", "inhibition": "inactive: 6.42%"},
      {"smiles": "CP(=O)(Nc1ccc2c(c1)OCCO2)Oc1ccccc1", "note": "(centres undefined)", "inhibition": "inactive: 6.17%"},
      {"smiles": "CN(C)CCOC(=O)C(O)(c1ccccc1)C1CCCCC1", "note": "(centres undefined)", "inhibition": "inactive: -4.58%"},
      {"smiles": "COc1ccc(NP(C)(=O)Oc2ccccc2OC)cc1", "note": "(centres undefined)", "inhibition": "inactive: 4.72%"},
      {"smiles": "COc1ccc(OP(C)(=O)Nc2cccc(Br)c2)cc1", "note": "(centres undefined)", "inhibition": "inactive: -2.84%"}
    ]}
  ]
}
